This test concerns the target CHO cell sialidase (Cricetulus griseus, UniProt Q64393). The experiment in a line: biochemical.

By UniProt entry, the sequences of proteins in these tests, tags left out. Where a name states a change or a piece, a line headed by the entry shows the natural chain unless it says otherwise.
UniProt Q64393: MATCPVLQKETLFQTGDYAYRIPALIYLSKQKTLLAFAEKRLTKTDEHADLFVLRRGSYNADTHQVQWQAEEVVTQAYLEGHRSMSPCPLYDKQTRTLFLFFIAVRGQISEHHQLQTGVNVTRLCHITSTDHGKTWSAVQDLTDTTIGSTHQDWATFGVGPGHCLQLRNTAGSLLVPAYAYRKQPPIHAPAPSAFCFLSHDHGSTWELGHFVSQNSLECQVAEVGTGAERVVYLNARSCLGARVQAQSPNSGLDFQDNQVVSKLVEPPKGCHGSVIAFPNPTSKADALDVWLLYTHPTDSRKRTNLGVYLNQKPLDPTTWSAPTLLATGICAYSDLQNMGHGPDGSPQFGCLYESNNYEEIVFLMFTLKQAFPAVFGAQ

Read-outs that look alike come from different tables or passages of the source.

Broadly, the Ki is a dissociation constant, usually derived from enzyme kinetics or from competition with a known ligand. `CC(=O)N[C@H]1[C@H]([C@H](O)[C@H](O)CN=[N+]=[N-])OC(C(=O)O)=C[C@@H]1O` [9-Azido Neu5Ac2en, 5-acetamido-2,6-anhydro-9-azido-3,5,9-trideoxy-D-glycero-D-galacto-non-2-enonic acid] yielded a Ki (Ki, CHO cell sialidase (Cytosol ?)) of 45 µM.

Consider `CC(=O)N[C@H]1[C@H]([C@H](O)[C@H](O)CSc2ccc(N=[N+]=[N-])cc2[N+](=O)[O-])OC(C(=O)O)=C[C@@H]1O` [9-S-PANP Neu5Ac2en, 9-S-(4′-azido-2′-nitro-phenyl)-5-acetamido-2,6 anhydro-9-thio-2,5,9-trideoxy-D-glycero-D-galacto-non-2-enonic acid], for which affinity was put at a Ki of 300 µM.

For the origin of these results see US6562588B2, “Sialidase and recombinant cell lines” (Genentech, Inc., priority 1993, dated 2003).
